According to article PMC7723054:
Some of the results follow.

T1: LIN28A (human?, UniProt Q9H9Z2 1-209)
T1 sequence: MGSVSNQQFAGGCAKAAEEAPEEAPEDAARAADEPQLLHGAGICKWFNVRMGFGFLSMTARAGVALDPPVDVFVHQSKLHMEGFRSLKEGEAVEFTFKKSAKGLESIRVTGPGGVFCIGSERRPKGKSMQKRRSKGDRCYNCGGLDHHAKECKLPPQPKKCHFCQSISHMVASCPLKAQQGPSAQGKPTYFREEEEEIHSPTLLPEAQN

T2: CIRBP (Homo sapiens, UniProt Q14011 1-172)
T2 sequence: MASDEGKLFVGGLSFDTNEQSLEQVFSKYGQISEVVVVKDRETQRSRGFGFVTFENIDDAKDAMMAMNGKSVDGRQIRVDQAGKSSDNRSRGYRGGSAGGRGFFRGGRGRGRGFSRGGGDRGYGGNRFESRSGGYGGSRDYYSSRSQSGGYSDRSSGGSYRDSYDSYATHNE

T3: DHX36 (Homo sapiens, UniProt Q9H2U1 1-1008)
T3 sequence: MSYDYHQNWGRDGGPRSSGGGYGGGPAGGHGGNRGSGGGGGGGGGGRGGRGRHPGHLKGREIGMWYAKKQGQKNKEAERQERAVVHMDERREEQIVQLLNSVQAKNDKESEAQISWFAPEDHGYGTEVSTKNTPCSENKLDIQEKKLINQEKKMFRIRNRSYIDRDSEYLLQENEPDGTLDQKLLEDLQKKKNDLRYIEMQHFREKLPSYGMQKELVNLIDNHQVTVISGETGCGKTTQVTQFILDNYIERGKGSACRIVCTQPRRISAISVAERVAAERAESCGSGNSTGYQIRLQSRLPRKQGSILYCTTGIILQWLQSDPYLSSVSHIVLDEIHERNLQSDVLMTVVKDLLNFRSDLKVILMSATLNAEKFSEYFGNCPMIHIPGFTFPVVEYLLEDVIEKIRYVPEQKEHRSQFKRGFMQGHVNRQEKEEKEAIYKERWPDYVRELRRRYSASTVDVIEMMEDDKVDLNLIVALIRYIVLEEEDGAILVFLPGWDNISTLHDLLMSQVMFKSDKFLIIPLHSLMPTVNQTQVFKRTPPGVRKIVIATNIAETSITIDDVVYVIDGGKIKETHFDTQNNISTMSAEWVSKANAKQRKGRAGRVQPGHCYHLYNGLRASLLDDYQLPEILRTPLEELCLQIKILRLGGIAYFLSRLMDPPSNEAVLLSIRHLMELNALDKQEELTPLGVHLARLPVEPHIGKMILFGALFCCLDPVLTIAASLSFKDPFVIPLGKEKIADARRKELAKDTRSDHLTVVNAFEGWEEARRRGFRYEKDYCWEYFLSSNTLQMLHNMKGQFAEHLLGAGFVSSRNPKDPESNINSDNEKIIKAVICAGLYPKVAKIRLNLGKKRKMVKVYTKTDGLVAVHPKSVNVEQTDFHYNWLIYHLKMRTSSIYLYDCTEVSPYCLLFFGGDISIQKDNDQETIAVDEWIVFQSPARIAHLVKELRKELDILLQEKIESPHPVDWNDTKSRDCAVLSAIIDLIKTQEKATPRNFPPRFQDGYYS

B1: hsa-mir-135b (structured_RNA)
RNA: GGGAAACUGGCGGUAACUAUAGUCACUAGGUGUACGAAGUUUCAGCAUGUGAUUGCUGUCCCAAACUCAUGUGCUGAAGCUUCGUGCAC
B2: hsa-mir-1256 (structured_RNA)
RNA: GGGAACGAACCGCGAUUGCUGCAAACUAGGUGUACGAAGUUUCAGCAGCUGUGAAAGUCCUAGCUGCUGAAGCUUCGUGCAC
B3: NEAT1_ParasoR_ID13 (structured_RNA)
RNA: GGGACAAAUAGGGUGUGAUUGCCGCAAAGGUGUACGAAGUUUCAGCGUAACUCCUAUGGUUACGCUGAAGCUUCGUGCAC
B4: hsa-mir-6513 (structured_RNA)
RNA: GGGAGUAUCGAAAGGCGGUCAGAAUGCGGGUGUACGAAGUUUCAGCAUGUCUCAGGUCCCCAGCUGAGUCAAGCUGAAGCUUCGUGCAC
B5: hsa-mir-7702 (structured_RNA)
RNA: GGGAUCGGUUAGAACAGUAUCGAUUCCGGGUGUACGAAGUUUCAGCCUGAGGACAUGCAGUUUCAGGCUGAAGCUUCGUGCAC
B6: hsa-mir-206 (structured_RNA)
RNA: GGGACCACCUUGAUUGGUUAACUGCACGGGUGUACGAAGUUUCAGCCCCAUAUGGAUUACUUUGCUAUGGAGCUGAAGCUUCGUGCAC
B7: hsa-mir-188 (structured_RNA)
RNA: GGGAAUGGAAGAGCCCUCACCACAAAGCGGUGUACGAAGUUUCAGCGGAGGGUGAGCUUUCUGAAAACCCCUCCGCUGAAGCUUCGUGCAC
B8: hsa-mir-375 (structured_RNA)
RNA: GGGAAGAUUCCGUGUUCAUGCCCGCAACGGUGUACGAAGUUUCAGCCAAACCGGACCUGAGCGUUUUGGCUGAAGCUUCGUGCAC
B9: hsa-mir-3167 (structured_RNA)
RNA: GGGAAAACGCCACAGGCAACGUGUAUAGGGUGUACGAAGUUUCAGCUUCUUUUUUCUGAAAUUCUUCAGGAAGGAGCUGAAGCUUCGUGCAC
B10: hsa-mir-4465 (structured_RNA)
RNA: GGGAGUGAGCUCCGCGUAUCUGGAGUUGGGUGUACGAAGUUUCAGCUGAGGUUUACUAUGGAACCUCAGCUGAAGCUUCGUGCAC
B11: hsa-mir-8078 (structured_RNA)
RNA: GGGAAAGACCGGCACGGAACUGGUAAAUGGUGUACGAAGUUUCAGCGGCCUGGGAUUCCUGCCUUCUAGGUCGCUGAAGCUUCGUGCAC
B12: hsa-mir-5689 (structured_RNA)
RNA: GGGAACUGGAGUCCCUGGAACUCACUCGGGUGUACGAAGUUUCAGCUAGAUACUCAGGAGGGUGAGUAUCUAGCUGAAGCUUCGUGCAC
B13: hsa-mir-4264 (structured_RNA)
RNA: GGGAAAUUAGCUUUCGGCAUCUGCAGGCGGUGUACGAAGUUUCAGCCAUUGUAACAUGAUAGUGGCUGAAGCUUCGUGCAC
B14: hsa-mir-548au (structured_RNA)
RNA: GGGAAGCAACGACUCGGCGAUGAUCUACGGUGUACGAAGUUUCAGCGCGGUUUUUGCUAUUGGUUUUAAUGGCGCUGAAGCUUCGUGCAC
B15: hsa-mir-3168 (structured_RNA)
RNA: GGGAAGAGCUAUCGGUCGGCUUAACUGAGGUGUACGAAGUUUCAGCAGACAGCCUGAGUUGGAGGCUCAUCUUCACUUCUUGCUGUGUGCUGAAGCUUCGUGCAC
B16: hsa-mir-1208 (structured_RNA)
RNA: GGGAUGAACUCCCGCAGUCGAGUCUAUAGGUGUACGAAGUUUCAGCGGAGACGGGUCUUUCUCGCUGAAGCUUCGUGCAC
B17: hsa-mir-488 (structured_RNA)
RNA: GGGAAGGUCUAGAAACAUGAGUGCGAGCGGUGUACGAAGUUUCAGCUCAAACAAGUUUCCAAAUUGUUUGAGCUGAAGCUUCGUGCAC
B18: hsa-mir-3912 (structured_RNA)
RNA: GGGAAACUUUACUCGGGAGACAUGACCCGGUGUACGAAGUUUCAGCGUUAGUUGUGGACACAUACUAACGCUGAAGCUUCGUGCAC
B19: hsa-mir-8057 (structured_RNA)
RNA: GGGAAUAGCUGAAAAGUGGGAUUCCUUCGGUGUACGAAGUUUCAGCGGACUUGCGGUUCAGCUGAAGCUUCGUGCAC
B20: hsa-mir-374b (structured_RNA)
RNA: GGGAAACCCUAGAUUAUGACGCCAAGUCGGUGUACGAAGUUUCAGCUAAGUGUCCUAGCACUUAGCUGAAGCUUCGUGCAC
B21: hsa-mir-7855 (structured_RNA)
RNA: GGGAAGAUGUUAGUUUGACAACGGAAUCGGUGUACGAAGUUUCAGCUCGGCACUAUUGUGACUGUGCUGAAGCUUCGUGCAC
B22: hsa-mir-3621 (structured_RNA)
RNA: GGGACCACUAUGAGGUGCAGCAUUUAAUGGUGUACGAAGUUUCAGCCAGGGCGGUGCGGCAGCCGCCACCGCUGAAGCUUCGUGCAC
B23: hsa-mir-563 (structured_RNA)
RNA: GGGAAGUUGUGGAUUGGGCGUGCCCUAUGGUGUACGAAGUUUCAGCCUCUGAUGUAAUUAGGUGCUGAAGCUUCGUGCAC
B24: hsa-mir-634 (structured_RNA)
RNA: GGGAGAAACAGGUAAAUAAGCCUUUUGUGGUGUACGAAGUUUCAGCGGUGUCAUGCCCCAAGAUAACCGCUGAAGCUUCGUGCAC
B25: hsa-mir-885 (structured_RNA)
RNA: GGGAGGAUACGGCACCGAGAGCGAUUUGGGUGUACGAAGUUUCAGCGCCUCUUCUCCAUGAGAGGCGCUGAAGCUUCGUGCAC
B26: hsa-mir-5681a (structured_RNA)
RNA: GGGAAGAGUAUCAGCGCCCAAGUCAUUUGGUGUACGAAGUUUCAGCUUCUAGUCCCUAUUAGACUAGAAGCUGAAGCUUCGUGCAC

These binders were tested against T1, LIN28A (assay: FOREST: bead pull-down of RNA structure library v1, barcode microarray; U1A/LIN28A: 20 mM HEPES pH 7.5, 80 mM KCl, 20 mM NaCl, 10% glycerol, 2 mM DTT, 0.1 ug/uL BSA, 4 C; BG4/CIRBP/DHX36: 10 mM Tris-HCl pH 7.5, 100 mM KCl (or LiCl),; high values mean tight binding).

Row | Binder | binding signal [z-score]
1 | B1 | -0.409
2 | B2 | -0.41
3 | B3 | -0.41
4 | B4 | -0.415
5 | B5 | -0.416
6 | B6 | -0.417
7 | B7 | -0.424
8 | B8 | -0.424
9 | B9 | -0.428
10 | B10 | -0.431
11 | B11 | -0.432
12 | B12 | -0.433
13 | B13 | -0.434
14 | B14 | -0.449
15 | B15 | -0.449
16 | B16 | -0.449
17 | B17 | -0.451
18 | B18 | -0.452
19 | B19 | -0.453
20 | B20 | -0.454
21 | B21 | -0.454
22 | B22 | -0.456
23 | B23 | -0.457
24 | B24 | -0.465
25 | B25 | -0.467
26 | B26 | -0.469

Each binder was assayed against T2, CIRBP in the same assay as above.

Row | Binder | binding signal [z-score]
27 | B1 | -0.438
28 | B2 | 0.833
29 | B3 | -0.294
30 | B4 | -0.891
31 | B5 | -0.864
32 | B6 | -0.103
33 | B7 | -0.207
34 | B8 | -0.218
35 | B9 | 0.588
36 | B10 | -1.26
37 | B11 | -0.429
38 | B12 | -1.71
39 | B13 | -0.173
40 | B14 | -1.19
41 | B15 | 0.457
42 | B16 | -0.742
43 | B17 | 1.07
44 | B18 | -1.02
45 | B19 | -1.2
46 | B20 | 0.911
47 | B21 | -0.951
48 | B22 | 0.448
49 | B23 | 1.09
50 | B24 | -0.176
51 | B25 | -0.431
52 | B26 | -0.476

Each binder was assayed against T3, DHX36 in the same assay as above.

Row | Binder | binding signal [z-score]
53 | B1 | -0.409
54 | B2 | -0.284
55 | B3 | 0.219
56 | B4 | 0.927
57 | B5 | -0.583
58 | B6 | -1.25
59 | B7 | 0.366
60 | B8 | -0.713
61 | B9 | -0.106
62 | B10 | 0.107
63 | B11 | -0.914
64 | B12 | -0.556
65 | B13 | -0.59
66 | B14 | -0.71
67 | B15 | -0.558
68 | B16 | 0.321
69 | B17 | 0.541
70 | B18 | 0.729
71 | B19 | -0.991
72 | B20 | -0.867
73 | B21 | -1.29
74 | B22 | -0.358
75 | B23 | -0.428
76 | B24 | -0.286
77 | B25 | -0.306
78 | B26 | -0.0327
